Laboratory results: publication PMC3210067 (Nature chemical biology, 2011)
Non-standard residues stand in square brackets, D forms with d. Residues, ends and D or L forms follow the SMILES beside them. NMeY = CN[C@@H](Cc1ccc(O)cc1)C(=O)O; NMeL = CN[C@@H](CC(C)C)C(=O)O; dNMeL = CN[C@H](CC(C)C)C(=O)O

Assays:
[1] = human liver microsomal stability; assay type: in vitro ADME; conditions: liver microsomes, pH 7.4
[2] = rat liver microsomal stability; assay type: in vitro ADME; conditions: liver microsomes, pH 7.4
human plasma stability = assay type: in vitro ADME; conditions: pH 7.4
[3] = parallel artificial membrane permeability assay; conditions: Figure 4a, values not given

SMILES | microsomal CLint at 1 µM [1] [µL/min/mg] | microsomal CLint at 1 µM [2] [µL/min/mg] | PAMPA permeability (in words) [3] | also measured
CC(C)C[C@@H]1NC(=O)[C@H](CC(C)C)N(C)C(=O)[C@@H](CC(C)C)N(C)C(=O)[C@H](CO)NC(=O)[C@H](Cc2ccc(O)cc2)N(C)C(=O)[C@H]2CCCN2C1=O [3 L^1S] (cyclo(L[dP][NMeY]S[dNMeL][NMeL])) | – | – | – | drop in RRCK cell permeability relative to 3 (RRCK cells; single Leu-to-Ser substitution in 3, listed as Leu^4-to-Ser): 85%
CC(C)C[C@@H]1NC(=O)[C@H](Cc2ccc(O)cc2)NC(=O)[C@H]2CCCN2C(=O)[C@H](CC(C)C)NC(=O)[C@H](CC(C)C)NC(=O)[C@@H](CC(C)C)NC1=O [compound 1, cyclo[Leu, D-Leu, Leu, Leu, D-Pro, Tyr]] | 225 | 243 | – | half-life at 1 µM (human plasma stability): > 6 h
CC(C)C[C@@H]1NC(=O)[C@H](CC(C)C)NC(=O)[C@@H](CC(C)C)NC(=O)[C@H](Cc2ccc(O)cc2)NC(=O)[C@H]2CCCN2C(=O)[C@H](CC(C)C)NC1=O [compound 2] | 109 | 47.1 | – | half-life at 1 µM (human plasma stability): > 6 h
CC(C)C[C@@H]1NC(=O)[C@H](Cc2ccc(O)cc2)N(C)C(=O)[C@H]2CCCN2C(=O)[C@H](CC(C)C)NC(=O)[C@H](CC(C)C)N(C)C(=O)[C@@H](CC(C)C)N(C)C1=O [compound 3] | 110 | 30.4 | – | –
CC(C)C[C@@H]1NC(=O)[C@H](CC(C)C)N(C)C(=O)[C@@H](CC(C)C)N(C)C(=O)[C@H](Cc2ccc(O)cc2)N(C)C(=O)[C@H]2CCCN2C(=O)[C@H](CC(C)C)N(C)C1=O [compound 4] (cyclo(L[NMeL][dP][NMeY][dNMeL][NMeL])) | – | – | comparable to that of the orally bioavailable drug propranolol | fold more permeable than corresponding non-methylated precursor (RRCK) (RRCK cells; RRCK cells, relative to 1 or 2): 3 to 10 fold
CC(C)C[C@@H]1C(=O)N(C)[C@@H](CC(C)C)C(=O)N(C)[C@@H](CC(C)C)C(=O)N2CCC[C@@H]2C(=O)N(C)[C@@H](Cc2ccc(O)cc2)C(=O)N(C)[C@@H](CC(C)C)C(=O)N1C [compound 5] | – | – | as low as those of the nonmethylated precursors | –
CC(C)C[C@@H]1C(=O)N(C)[C@@H](CC(C)C)C(=O)N(C)[C@@H](CC(C)C)C(=O)N(C)[C@@H](CC(C)C)C(=O)N2CCC[C@@H]2C(=O)N(C)[C@@H](Cc2ccc(O)cc2)C(=O)N1C [compound 6] | – | – | as low as those of the nonmethylated precursors | –
